# Measured affinities in a library of Ab-14 heavy chain variants

From the AlphaSeq antibody data of Li et al. 2023 (doi:10.1038/s41467-023-39022-2), copy in the FLAb collection.

The target is the same throughout: PDVDLGDISGINAS, from the HR2 region of SARS-CoV-2 spike.

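Phage display of a naive human antibody library on the peptide gave the parent. This is the validation round: designs drawn from the data on random variants, tested in the same kind of assay. Their group label is 14H_Ctrl (Ctrl: baseline library sampled from a position-specific scoring matrix, with some repeated check sequences). The assay is AlphaSeq: two haploid yeast populations carry antibody and antigen on their surface. The frequency of each diploid, read from paired DNA barcodes, reflects how well the two displayed proteins bind. Scores were corrected for input abundance and mapped to Kd with protein pairs of known affinity run in the same pool. Mating was done six times.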

Each scFv is VH, a (GGGGS)3 linker, VL, as in the parent Ab-14, and differs from it in the CDRs of the heavy chain only.
VH: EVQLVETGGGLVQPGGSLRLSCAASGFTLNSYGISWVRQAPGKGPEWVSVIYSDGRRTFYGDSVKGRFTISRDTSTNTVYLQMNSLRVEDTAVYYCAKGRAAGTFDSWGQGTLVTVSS
VL: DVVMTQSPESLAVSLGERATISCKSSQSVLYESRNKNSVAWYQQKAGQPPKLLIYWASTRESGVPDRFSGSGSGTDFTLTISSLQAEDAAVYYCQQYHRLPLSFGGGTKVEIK

Positions count from residue 1 of the parent VH; S31E puts E in place of S.
Affinities are written as log10 Kd with Kd in nM; a lower number is a better binder.
The mean shown is taken over the replicates in which the pair was detected.
A pair that was not seen in that replicate is written "ND"; this usually means weak binding, but a binder can also be missed.
The authors' rule: three or more of the six replicates give a measured affinity, fewer mean a poor binder.

| changes | log10 Kd (nM) by replicate | mean log10 Kd (nM) | empty controls |
|---|---|---|---|
| S31E S53A A101G S107V | 0.35 0.47 0.51 0.26 0.37 0.51 | 0.41 | 0/18 |
| N30Q S31D A101M S107Q | ND 0.16 ND 0.88 1.53 1.12 | 0.92 | 0/18 |
| F27R S31E | ND ND ND ND ND ND | ND | 0/18 |
| T28N F59E S63E A101G S107M | ND ND ND ND ND ND | ND | 0/18 |
| G61H A101E T104S | 1.79 1.48 0.52 ND 1.28 ND | 1.27 | 0/18 |
| S31E G103W | ND ND ND ND ND ND | ND | 0/18 |
| T28V K65V | ND ND ND ND ND ND | ND | 0/18 |
| T28N F59Y S63E G99W R100K G103W | ND ND ND ND ND ND | ND | 0/18 |
| T28D L29N | ND ND ND 2.11 ND ND | 2.11 | 0/18 |
| S31E F59Y V64E G99T | ND ND ND ND 3.61 ND | 3.61 | 1/18 (2.35) |
| T28N I51A A101E G103I | ND ND ND ND ND ND | ND | 0/18 |
| F27E T28H N30A R100Q | ND ND ND ND ND ND | ND | 0/18 |
| S53A G61Q K65R R100K A101Y A102G | 0.85 0.61 0.82 1.12 0.95 1.84 | 1.03 | 0/18 |
| N30E S31D S63K | 1.20 2.28 1.63 1.88 1.41 1.60 | 1.67 | 0/18 |
| N30L R56Q G61I S107T | ND 1.69 ND ND 1.60 2.15 | 1.81 | 0/18 |
| N30L G33S G61S D106V | ND ND ND ND ND ND | ND | 0/18 |
| R100Q G103A | ND ND ND ND ND ND | ND | 0/18 |
| Y32F F105Y | ND 1.45 1.24 ND ND ND | 1.35 | 1/18 (0.38) |
| T28E N30E F59S G99E | ND ND ND ND ND ND | ND | 0/18 |
| F59A G61A R100F S107Q | 1.21 1.09 0.83 0.95 0.62 0.73 | 0.91 | 0/18 |
| T28G N30T R100K | ND ND ND ND 0.68 0.66 | 0.67 | 0/18 |
| R56E G99D R100Y S107I | ND ND ND ND ND ND | ND | 0/18 |
| S35N | ND ND ND ND ND ND | ND | 0/18 |
| F27L | ND ND ND 1.93 3.16 2.45 | 2.51 | 0/18 |
| T28S F59I R100Y G103Q | ND ND 1.18 ND 0.10 1.24 | 0.84 | 0/18 |
| T58Q R100W F105S | ND ND ND ND ND ND | ND | 0/18 |
| F27H S53A R56L D62G S63A R100Q | ND ND ND ND ND ND | ND | 0/18 |
| G26D S31E V64Y R100E A102P | 0.43 1.31 0.47 0.57 0.89 1.09 | 0.80 | 0/18 |
| S31M S53D D106P | ND ND ND ND ND ND | ND | 0/18 |
| T28E N30D G61D A101S G103K | ND ND ND ND ND ND | ND | 0/18 |
| T28N G61D V64T R100E | ND ND ND ND 1.10 0.07 | 0.58 | 0/18 |
| A101H T104D | ND ND ND ND ND ND | ND | 0/18 |
| S31D G99I | ND ND ND ND ND ND | ND | 0/18 |
| R56V G61E A101F | ND ND ND 1.16 2.94 ND | 2.05 | 0/18 |
| T28P R56I G61S S63D | ND ND ND ND ND ND | ND | 0/18 |
| T28E S63A A102E | ND ND ND ND ND ND | ND | 1/18 (1.53) |
| L29V K65D | ND ND ND ND ND ND | ND | 0/18 |
| T28G I51D F59E R100S A102K | ND ND ND ND ND ND | ND | 0/18 |
| S31M G61R D106E | ND ND ND ND ND ND | ND | 0/18 |
| A101E A102K | ND ND ND ND ND ND | ND | 0/18 |
| T58A R100E G103W S107L | ND ND ND ND ND ND | ND | 0/18 |
| I34K R100G | ND ND ND ND ND ND | ND | 0/18 |
| T28N N30E G61S A101L A102R | ND ND ND ND ND ND | ND | 0/18 |
| T28S S31M V64F | 2.07 ND ND ND ND 2.38 | 2.22 | 0/18 |
| L29V G61Y S63E A102Y | ND ND ND ND ND ND | ND | 0/18 |
| N30Q S53A A101K G103T | 0.10 0.05 -0.03 -0.23 0.00 0.01 | -0.02 | 0/18 |
| N30L I34A R100D T104G S107T | ND ND ND ND ND ND | ND | 0/18 |
| N30M A101E | 1.87 0.93 0.49 0.57 1.16 0.48 | 0.92 | 0/18 |

Extract of 6 entries:

changes,log10 Kd (nM) by replicate,mean log10 Kd (nM),empty controls
S31M G61R D106E,ND ND ND ND ND ND,ND,0/18
T28N N30E G61S A101L A102R,ND ND ND ND ND ND,ND,0/18
T28N G61D V64T R100E,ND ND ND ND 1.10 0.07,0.58,0/18
A101H T104D,ND ND ND ND ND ND,ND,0/18
N30Q S31D A101M S107Q,ND 0.16 ND 0.88 1.53 1.12,0.92,0/18
R56V G61E A101F,ND ND ND 1.16 2.94 ND,2.05,0/18

Three control strains display no target. For all heavy chain designs, 1% of the pairings with them gave a signal, with a median of 2.08 and one signal in twenty below 0.84, so weak values seen in few replicates may be background. The control count says in how many pairings with the empty strains this scFv gave a signal, with their mean in brackets.
A sequence measured in both rounds can read differently, since the two assays cover different ranges.
Of ten entries with the parent sequence, four were seen in most replicates (averages 0.34 to 2.37), three in one and three in none, so single entries are noisy.